Results from ChEMBL document CHEMBL1150779, “Triazolopyrimidine-based dihydroorotate dehydrogenase inhibitors with potent and selective activity against the malaria parasite Plasmodium falciparum” (J Med Chem, 2008).

Target: T1, Dihydroorotate dehydrogenase (Plasmodium falciparum) (UniProt Q54A96)
T1 sequence (whole entry): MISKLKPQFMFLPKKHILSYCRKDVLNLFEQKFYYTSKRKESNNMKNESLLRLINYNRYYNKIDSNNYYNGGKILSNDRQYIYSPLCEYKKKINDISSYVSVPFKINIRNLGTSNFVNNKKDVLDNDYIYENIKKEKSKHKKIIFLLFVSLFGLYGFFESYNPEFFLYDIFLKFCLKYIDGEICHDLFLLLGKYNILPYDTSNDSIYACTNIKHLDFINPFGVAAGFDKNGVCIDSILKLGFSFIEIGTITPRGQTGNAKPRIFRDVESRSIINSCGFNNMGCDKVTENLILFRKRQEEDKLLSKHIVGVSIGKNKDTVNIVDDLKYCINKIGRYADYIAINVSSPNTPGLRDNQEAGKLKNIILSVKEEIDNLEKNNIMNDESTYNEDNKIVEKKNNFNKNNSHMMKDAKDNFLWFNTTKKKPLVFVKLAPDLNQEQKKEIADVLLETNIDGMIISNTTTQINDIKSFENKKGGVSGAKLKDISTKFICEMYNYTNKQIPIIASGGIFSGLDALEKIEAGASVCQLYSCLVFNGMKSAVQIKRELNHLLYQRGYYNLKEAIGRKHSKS

With `Cc1cc(Nc2ccc3ccccc3c2)n2ncnc2n1` the Kinact was 0.015 µM.
